## Measured affinities in a library of Ab-14 light chain variants

Values reported by Engelhart et al. 2022, doi:10.1038/s41597-022-01779-4 (FLAb copy).

Target: peptide PDVDLGDISGINAS, taken from heptad repeat 2 (HR2) of SARS-CoV-2 spike.

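In library AAYL50, one, two or three CDR residues were substituted; doubles and triples were drawn at random. The scFvs were displayed on barcoded MATa yeast, the peptide on MATalpha yeast. Mating (16 h, 30 °C) was followed by selection of diploids and sequencing of their barcodes. A regression on co-assayed BCL2-family reference pairs converts the normalised counts of each replicate to an apparent Kd. Mating was done three times.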

Ab-14 is the parent antibody, in scFv form: VH, then the linker GGGGSGGGGSGGGGS, then VL. The heavy chain is unchanged in all variants.
VH: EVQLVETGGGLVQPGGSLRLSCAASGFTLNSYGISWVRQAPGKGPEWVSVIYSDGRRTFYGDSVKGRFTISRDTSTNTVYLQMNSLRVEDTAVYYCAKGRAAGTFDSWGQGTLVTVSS
VL: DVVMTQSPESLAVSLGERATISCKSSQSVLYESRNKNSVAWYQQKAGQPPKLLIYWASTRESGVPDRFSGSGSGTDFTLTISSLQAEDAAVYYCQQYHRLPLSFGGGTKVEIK

Substitutions are numbered in sequence along the VL above, starting at 1 (not Kabat). This list gathers variants with a substitution at S103 (VL, numbered from residue 1). Values are apparent Kd, the geometric mean of the replicates that gave a signal; lower means stronger binding. An entry "no signal" has no value in the source: the pair was not observed among the diploids in any replicate. This suggests poor binding but is not conclusive.

Variant Q27A+Y31M+S103M showed 160 nM (3 of 3 replicates).
Variant A57D+S62H+S103E showed 22 nM (3 of 3 replicates).
Variant L30Y+S62Y+S103M showed 12 nM (3 of 3 replicates).
Variant S26L+T59M+S103Q showed 12 nM (3 of 3 replicates).
Variant K36S+W56I+S103Q showed 2.8 µM (3 of 3 replicates).
Variant K24V+V39Y+S103D showed 490 µM (1 of 3 replicates).
Variant V29D+S58I+S103G showed 91 nM (3 of 3 replicates).
Variant N35C+L102K+S103Q showed 270 nM (3 of 3 replicates).
Variant Q96H+S103F showed 10 nM (3 of 3 replicates).
Variant S28T+L100P+S103E showed 9.0 µM (1 of 3 replicates).
Variant S26H+H98W+S103Y showed 39 nM (3 of 3 replicates).
Variant S28Y+N37E+S103Y showed 1.3 µM (3 of 3 replicates).
Variant S25T+A40D+S103G showed no signal (0 of 3 replicates).
Variant K36F+L102N+S103I showed no signal (0 of 3 replicates).
Variant Q27P+Y97K+S103F showed no signal (0 of 3 replicates).
Variant R60S+S62N+S103D showed 2.9 µM (2 of 3 replicates).
Variant R34V+A57L+S103Y showed 3.2 µM (2 of 3 replicates).
Variant S28N+A57W+S103P showed no signal (0 of 3 replicates).
Variant Q27I+A57E+S103C showed no signal (0 of 3 replicates).
Variant A40S+S103Q showed 230 µM (2 of 3 replicates).
Variant N35C+A40P+S103M showed 13 µM (2 of 3 replicates).
Variant S25R+E32G+S103E showed 21 µM (1 of 3 replicates).
Variant K24F+S62E+S103H showed 110 nM (3 of 3 replicates).
Variant S28T+V39F+S103I showed no signal (0 of 3 replicates).

The first 2 entries again:

Variant Q27A+Y31M+S103M gave 160 nM (3 of 3 replicates).
Variant A57D+S62H+S103E gave 22 nM (3 of 3 replicates).

For reference, the parent read 4.4 nM as the reference entry and 48 nM as a member of this library. Background: pairings of library AAYL50 with three empty control strains gave a value in 18% of cases (median 15 µM, 5th percentile 970 nM). Values in that range, when seen in few replicates, are hard to tell from nonspecific mating.